The record followed here is ChEMBL document CHEMBL1275402, “Virtual screening to identify novel antagonists for the G protein-coupled NK3 receptor” (J Med Chem, 2010).

Sequences of proteins named here, by UniProt entry; tags and fusion partners are left off.
UniProt P29371, whole entry: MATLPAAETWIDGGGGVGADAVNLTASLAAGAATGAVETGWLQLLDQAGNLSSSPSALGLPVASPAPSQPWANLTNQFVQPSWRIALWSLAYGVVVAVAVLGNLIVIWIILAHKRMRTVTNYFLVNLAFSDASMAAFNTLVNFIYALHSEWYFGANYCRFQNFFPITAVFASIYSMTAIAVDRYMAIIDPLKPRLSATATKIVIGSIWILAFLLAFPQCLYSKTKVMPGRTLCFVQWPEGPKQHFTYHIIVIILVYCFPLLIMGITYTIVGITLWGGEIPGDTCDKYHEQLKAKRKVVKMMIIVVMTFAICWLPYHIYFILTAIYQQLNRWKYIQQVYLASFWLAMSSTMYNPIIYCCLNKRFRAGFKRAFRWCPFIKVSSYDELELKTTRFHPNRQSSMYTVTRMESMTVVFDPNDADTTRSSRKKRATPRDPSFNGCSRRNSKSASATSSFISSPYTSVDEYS

This assay deals with Neuromedin-K receptor (Homo sapiens, UniProt P29371). In words: Antagonist activity against human NK3 receptor expressed in HEK293 cells assessed as inhibition of NKB-induced increase of intracellular calcium level by fluorescent plate-reader analysis. Type of assay: functional, cell-based. A general note: Calcium flux is commonly read through the fluorescence of an indicator in the cells.

SMILES strings stand for the structures.

In general, IC50 refers to the concentration at which inhibition is half-maximal.

With `CC[C@H](NC(=O)c1c(O)c(-c2ccccc2)nc2ccccc12)c1ccccc1` [TALNETANT], the IC50 stood at 16.6 nM.
